For assay [1], the target named is BRG-1 (Homo sapiens, UniProt P51532). As to the kind of experiment: ATPase catalytic activity of BRG-1, ADP-Glo in vitro biochemical assay.
Assay [2] addresses BRM (Homo sapiens, UniProt P51531). Nature of the assay: ATPase catalytic activity of BRM, ADP-Glo in vitro biochemical assay.
The mark [3] stands for this setting: read-out: BRG1 IP50, 30 nM BRG-1, 400 μM ATP.
Setting [4] is: read-out: BRM IP50, 30 nM BRM, 400 μM ATP.
[5] abbreviates: read-out: BRG1 IP50 (μM)*, 30 nM BRG-1, 400 μM ATP.
The mark [6] stands for this setting: read-out: BRM IP50 (μM)*, 30 nM BRM, 400 μM ATP.

The chains behind the UniProt entries cited, without tags or fusion partners.
UniProt P51532, whole entry: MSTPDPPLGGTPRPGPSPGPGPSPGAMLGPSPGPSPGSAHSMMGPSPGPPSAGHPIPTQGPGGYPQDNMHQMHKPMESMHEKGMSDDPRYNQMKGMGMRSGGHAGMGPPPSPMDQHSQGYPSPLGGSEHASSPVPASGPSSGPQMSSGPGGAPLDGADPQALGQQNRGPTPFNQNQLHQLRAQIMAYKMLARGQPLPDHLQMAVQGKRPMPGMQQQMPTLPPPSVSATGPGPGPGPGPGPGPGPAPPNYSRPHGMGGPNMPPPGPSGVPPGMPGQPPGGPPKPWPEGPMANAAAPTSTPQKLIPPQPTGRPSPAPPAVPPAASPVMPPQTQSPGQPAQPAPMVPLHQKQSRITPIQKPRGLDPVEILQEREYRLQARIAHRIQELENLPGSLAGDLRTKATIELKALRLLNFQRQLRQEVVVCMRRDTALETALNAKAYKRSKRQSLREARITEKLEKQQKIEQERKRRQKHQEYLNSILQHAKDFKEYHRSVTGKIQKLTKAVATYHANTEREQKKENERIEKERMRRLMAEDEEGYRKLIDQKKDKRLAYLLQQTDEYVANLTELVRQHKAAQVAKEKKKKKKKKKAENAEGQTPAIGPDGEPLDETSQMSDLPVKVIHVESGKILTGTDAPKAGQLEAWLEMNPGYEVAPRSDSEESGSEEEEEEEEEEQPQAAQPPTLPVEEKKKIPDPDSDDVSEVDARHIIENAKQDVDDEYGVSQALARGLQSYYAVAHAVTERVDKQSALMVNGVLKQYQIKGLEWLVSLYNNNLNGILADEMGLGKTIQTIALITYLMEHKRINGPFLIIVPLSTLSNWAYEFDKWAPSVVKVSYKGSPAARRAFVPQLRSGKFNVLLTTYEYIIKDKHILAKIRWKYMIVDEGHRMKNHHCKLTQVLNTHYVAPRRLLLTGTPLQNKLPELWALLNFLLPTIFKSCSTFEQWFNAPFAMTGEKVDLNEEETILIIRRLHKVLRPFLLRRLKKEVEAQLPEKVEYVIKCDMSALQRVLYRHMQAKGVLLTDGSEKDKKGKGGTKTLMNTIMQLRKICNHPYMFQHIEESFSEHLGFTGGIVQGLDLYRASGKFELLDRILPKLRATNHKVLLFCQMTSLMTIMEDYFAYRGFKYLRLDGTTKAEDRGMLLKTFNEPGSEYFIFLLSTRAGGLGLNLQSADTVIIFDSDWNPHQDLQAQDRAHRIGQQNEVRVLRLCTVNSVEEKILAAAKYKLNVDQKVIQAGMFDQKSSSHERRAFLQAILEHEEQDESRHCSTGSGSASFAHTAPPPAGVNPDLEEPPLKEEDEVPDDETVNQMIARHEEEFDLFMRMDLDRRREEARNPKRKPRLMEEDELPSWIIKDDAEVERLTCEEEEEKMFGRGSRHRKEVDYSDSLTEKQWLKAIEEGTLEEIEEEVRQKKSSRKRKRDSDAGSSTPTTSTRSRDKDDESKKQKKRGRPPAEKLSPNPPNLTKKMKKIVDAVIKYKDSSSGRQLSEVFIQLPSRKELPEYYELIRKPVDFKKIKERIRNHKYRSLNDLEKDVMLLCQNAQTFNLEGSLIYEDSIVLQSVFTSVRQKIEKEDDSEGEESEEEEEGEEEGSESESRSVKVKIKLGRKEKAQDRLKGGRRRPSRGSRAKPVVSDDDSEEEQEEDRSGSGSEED
UniProt P51531, whole entry: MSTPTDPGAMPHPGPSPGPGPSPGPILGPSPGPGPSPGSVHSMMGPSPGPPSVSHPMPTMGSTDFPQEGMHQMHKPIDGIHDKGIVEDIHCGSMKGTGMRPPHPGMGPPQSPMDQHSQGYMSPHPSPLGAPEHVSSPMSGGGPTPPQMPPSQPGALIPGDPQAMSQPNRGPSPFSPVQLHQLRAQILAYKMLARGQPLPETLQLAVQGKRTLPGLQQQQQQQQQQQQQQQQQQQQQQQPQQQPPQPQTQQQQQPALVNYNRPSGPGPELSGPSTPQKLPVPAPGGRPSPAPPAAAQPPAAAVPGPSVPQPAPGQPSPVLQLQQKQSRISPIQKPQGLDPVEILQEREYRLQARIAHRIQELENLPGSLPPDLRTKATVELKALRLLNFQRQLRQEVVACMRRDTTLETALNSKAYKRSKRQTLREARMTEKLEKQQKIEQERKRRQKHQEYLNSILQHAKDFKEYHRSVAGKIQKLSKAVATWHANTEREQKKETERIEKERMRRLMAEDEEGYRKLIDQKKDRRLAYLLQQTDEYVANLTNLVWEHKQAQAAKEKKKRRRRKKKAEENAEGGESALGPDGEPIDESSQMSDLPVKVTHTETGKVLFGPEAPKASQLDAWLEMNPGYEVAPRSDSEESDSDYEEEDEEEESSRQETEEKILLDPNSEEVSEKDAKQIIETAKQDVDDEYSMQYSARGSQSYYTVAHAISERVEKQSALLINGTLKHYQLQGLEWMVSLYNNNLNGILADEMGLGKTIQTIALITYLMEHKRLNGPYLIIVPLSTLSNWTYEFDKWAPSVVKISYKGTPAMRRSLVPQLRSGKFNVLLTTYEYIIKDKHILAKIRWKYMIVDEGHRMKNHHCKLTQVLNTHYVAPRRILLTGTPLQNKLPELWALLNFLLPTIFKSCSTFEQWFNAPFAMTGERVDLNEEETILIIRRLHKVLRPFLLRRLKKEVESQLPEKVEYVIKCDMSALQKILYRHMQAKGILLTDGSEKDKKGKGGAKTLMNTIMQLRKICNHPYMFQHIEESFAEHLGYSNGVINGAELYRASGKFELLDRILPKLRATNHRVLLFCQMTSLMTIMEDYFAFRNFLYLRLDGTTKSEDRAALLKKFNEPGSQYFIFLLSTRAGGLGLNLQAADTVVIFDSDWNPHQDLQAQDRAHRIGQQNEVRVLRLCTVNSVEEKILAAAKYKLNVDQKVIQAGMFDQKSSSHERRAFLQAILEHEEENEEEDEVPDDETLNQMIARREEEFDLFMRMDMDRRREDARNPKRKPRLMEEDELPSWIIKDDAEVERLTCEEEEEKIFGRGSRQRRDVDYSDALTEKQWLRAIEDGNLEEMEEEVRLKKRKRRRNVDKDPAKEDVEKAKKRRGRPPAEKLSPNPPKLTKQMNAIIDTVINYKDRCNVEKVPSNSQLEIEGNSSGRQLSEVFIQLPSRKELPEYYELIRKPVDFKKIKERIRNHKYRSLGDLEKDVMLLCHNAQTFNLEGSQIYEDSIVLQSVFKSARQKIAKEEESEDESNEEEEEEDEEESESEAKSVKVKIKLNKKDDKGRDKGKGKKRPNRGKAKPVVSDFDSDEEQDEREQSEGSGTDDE

Our source for the IC50 values is US20230079819A1, “COMPOUNDS AND USES THEREOF” (Foghorn Therapeutics Inc., priority 2019, published 2023).

Molecules are shown by their SMILES. Where two headings read alike, the source gives them in different places.

Take `COC[C@H](NC(=O)c1ccn(S(C)(=O)=O)c1)C(=O)Nc1nc(-c2cccc(OC(F)(F)F)c2F)cs1`: the results for the IC50 in assay [1] (setting [3]) and in assay [2] (setting [4]) were over 0.1 µM and over 0.01 µM, respectively.

Take `C[C@@H]1CN(c2cccc(-c3csc(NC(=O)CNC(=O)c4ccn(C5(C#N)COC5)c4)n3)c2)C[C@H](C)O1`: the IC50 in assay [1] (setting [3]) and in assay [2] (setting [4]) was under 0.01 µM each time.

Consider `Cn1ccc(-c2cccc(-c3csc(NC(=O)CNC(=O)c4ccn(C5(C#N)CC5)c4)n3)c2)c1`, for which the IC50 in assay [1] (setting [3]) and in assay [2] (setting [4]) was over 0.01 µM in each case.

In the case of `COC[C@H](NC(=O)c1ccn(S(C)(=O)=O)c1)C(=O)Nc1nc(-c2cccc(OC3CC3)c2)cs1`, the IC50 in assay [1] (setting [3]) and in assay [2] (setting [4]) was over 0.01 µM in each case.

For the compound `CC(NC(=O)c1ccn(C(C)(C)C)c1)C(=O)Nc1nc(-c2ccc3ccn(C)c(=O)c3c2)cs1` (stereo not shown), the IC50 in assay [1] (setting [3]) and in assay [2] (setting [4]) was over 0.01 µM throughout.

In the case of `COC[C@H](NC(=O)c1ccn(S(C)(=O)=O)c1)C(=O)Nc1nc(-c2cc(Cl)cc(C3C[C@@H](C)O[C@@H](C)C3)n2)cs1` (stereo partly shown), the IC50 in assay [1] (setting [3]) and in assay [2] (setting [4]) was under 0.01 µM each time.

Take `CN1c2cc(-c3csc(NC(=O)CNC(=O)c4ccn(S(C)(=O)=O)c4)n3)ccc2CC1(C)C`: the IC50 in assay [1] (setting [3]) and in assay [2] (setting [4]) was over 0.01 µM throughout.

Take `CC1(C)CN(c2cccc(-c3csc(NC(=O)CNC(=O)c4ccn(C5(C)COC5)c4)n3)n2)CCC1O` (stereo not shown): the IC50 in assay [1] (setting [3]) and in assay [2] (setting [4]) was over 0.1 µM throughout.

Turning to `C[C@@H]1CN(c2cccc(-c3csc(NC(=O)CNC(=O)c4ccn(C5(C)COC5)n4)n3)n2)C[C@H](C)O1`, the IC50 in assay [1] (setting [5]) and in assay [2] (setting [6]) was over 0.01 µM in each case.

For `COC[C@H](NC(=O)c1ccn(C2(C)COC2)c1)C(=O)Nc1nc(-c2ccc3ccn(C)c(=O)c3c2)cs1` [Compound 453], the IC50 in assay [1] (setting [5]) and in assay [2] (setting [6]) was over 0.1 µM in each case.

On to `COC[C@H](NC(=O)c1ccn(S(C)(=O)=O)c1)C(=O)Nc1nc(-c2cncc(N3C[C@@H](C)O[C@@H](C)C3)c2)cs1`, for which the IC50 in assay [1] (setting [3]) and in assay [2] (setting [4]) was over 0.01 µM each time.

For the compound `CN(C)CC1CN(c2cccc(-c3csc(NC(=O)CNC(=O)c4ccn(C(C)(C)C)c4)n3)n2)CCO1` (stereo not shown), the IC50 in assay [1] (setting [3]) and in assay [2] (setting [4]) was over 0.1 µM in each case.

For `CS(=O)(=O)n1ccc(C(=O)NCC(=O)Nc2nc(-c3cc(F)c4c(c3F)OCC4)cs2)c1`, the IC50 in assay [1] (setting [3]) and in assay [2] (setting [4]) was over 0.01 µM throughout.

With `C[C@@H]1CN(c2cccc(-c3csc(NC(=O)[C@H](C)NC(=O)c4ccn(S(C)(=O)=O)c4)n3)c2)C[C@H](C)O1`, the IC50 was over 0.01 µM in assay [1] (setting [5]) and under 0.01 µM in assay [2] (setting [6]).

Consider `COCCOc1cccc(-c2csc(NC(=O)CNC(=O)c3ccn(S(C)(=O)=O)c3)n2)c1`, for which the IC50 in assay [1] (setting [5]) and in assay [2] (setting [6]) was over 0.01 µM in each case.

Turning to `C[C@@H]1CN(c2cccc(-c3csc(NC(=O)CNC(=O)c4ccn(C(C)(C)CF)c4)n3)n2)C[C@H](C)O1`, the IC50 in assay [1] (setting [5]) and in assay [2] (setting [6]) was under 0.01 µM in each case.

As for `COC1CC(c2ccc(-c3csc(NC(=O)CNC(=O)c4ccn(S(C)(=O)=O)c4)n3)cc2)C1` (stereo not shown), the values for the IC50 in assay [1] (setting [3]) and in assay [2] (setting [4]) were over 0.1 µM and over 0.01 µM, respectively.

In the case of `COC[C@H](NC(=O)c1ccn(S(C)(=O)=O)c1)C(=O)Nc1nc(-c2cccc([C@@H]3CC3(F)F)n2)cs1`, the IC50 in assay [1] (setting [3]) and in assay [2] (setting [4]) was over 0.1 µM in each case.

As for `CN1CCc2ccc(-c3csc(NC(=O)CNC(=O)c4ccn(S(C)(=O)=O)c4)n3)nc21`, the IC50 in assay [1] (setting [3]) and in assay [2] (setting [4]) was over 0.01 µM in each case.

`C[C@@H]1CN(c2nccc(-c3csc(NC(=O)CNC(=O)c4ccn(C(C)(C)C)n4)n3)n2)C[C@H](C)O1`: the IC50 in assay [1] (setting [5]) and in assay [2] (setting [6]) was over 0.01 µM throughout.

For the compound `CO[C@H](C)[C@H](NC(=O)c1ccn(S(C)(=O)=O)c1)C(=O)Nc1nc(-c2cccc(N3C[C@@H](C)O[C@@H](C)C3)n2)cs1`, the IC50 in assay [1] (setting [3]) and in assay [2] (setting [4]) was over 0.01 µM in each case.

Take `CS(=O)(=O)n1ccc(C(=O)NCC(=O)Nc2nc(-c3cccc(OCCC(F)(F)F)c3)cs2)c1`: the IC50 in assay [1] (setting [5]) and in assay [2] (setting [6]) was over 0.01 µM each time.

On to `CS(=O)(=O)n1ccc(C(=O)NCC(=O)Nc2nc(-c3cccc(OC4CC4)c3F)cs2)c1`, for which the IC50 in assay [1] (setting [3]) and in assay [2] (setting [4]) was over 0.01 µM in each case.

Consider `CN1CCc2cc(-c3csc(NC(=O)CNC(=O)c4ccn(S(C)(=O)=O)c4)n3)cc(F)c21`, for which the IC50 in assay [1] (setting [3]) and in assay [2] (setting [4]) was over 0.01 µM throughout.

In the case of `Cc1nccc(-c2cccc(-c3csc(NC(=O)CNC(=O)c4ccn(C(C)(C)C)n4)n3)c2)n1`, the IC50 in assay [1] (setting [5]) and in assay [2] (setting [6]) was under 0.01 µM in each case.

In the case of `Cn1ccc2ccc(-c3csc(NC(=O)CNC(=O)c4cn(C5(C#N)CC5)cn4)n3)nc2c1=O`, the IC50 in assay [1] (setting [3]) and in assay [2] (setting [4]) was over 0.1 µM each time.

Take `C[C@@H]1CN(c2cccc(-c3csc(NC(=O)[C@H](C)NC(=O)c4ccn(C5(C)COC5)n4)n3)n2)C[C@H](C)O1`: the IC50 in assay [1] (setting [3]) and in assay [2] (setting [4]) was over 0.1 µM each time.

`C[C@@H]1CN(c2cccc(-c3csc(NC(=O)CNC(=O)c4ccn(C5(C)CC5)c4)n3)n2)C[C@H](C)O1` [Compound 333]: the IC50 in assay [1] (setting [5]) was over 0.1 µM; in assay [2] (setting [6]) it was over 0.01 µM.

With `CS(=O)(=O)n1ccc(C(=O)NCC(=O)Nc2nc(-c3ccc(F)c(OC4CC4)c3)cs2)c1`, the IC50 in assay [1] (setting [3]) and in assay [2] (setting [4]) was over 0.01 µM each time.

In the case of `CC(C)(O)COc1cccc(-c2csc(NC(=O)CNC(=O)c3ccn(S(C)(=O)=O)c3)n2)c1`, the IC50 in assay [1] (setting [5]) and in assay [2] (setting [6]) was over 0.01 µM throughout.

Regarding `C[C@@H]1CN(c2cccc(-c3csc(NC(=O)CNC(=O)c4ccn(C(C)(C)CO)c4)n3)c2)C[C@H](C)O1`, the results for the IC50 in assay [1] (setting [5]) and in assay [2] (setting [6]) were over 0.1 µM and over 0.01 µM, respectively.

Take `CS(=O)(=O)n1ccc(C(=O)NCC(=O)Nc2nc(-c3cccc(C45CCOCC4C5)c3)cs2)c1` (stereo not shown) [Compound 743]: the IC50 in assay [1] (setting [3]) and in assay [2] (setting [4]) was over 0.01 µM each time.

For `CS(=O)(=O)n1ccc(C(=O)NCC(=O)Nc2nc(-c3cccc(N4CC(CN5CCOCC5)C4)c3)cs2)c1`, the IC50 in assay [1] (setting [5]) and in assay [2] (setting [6]) was over 0.1 µM in each case.

For the compound `COC[C@H](NC(=O)c1ccn(C2(C#N)CC2)c1)C(=O)Nc1nc(-c2cccc(N3C[C@@H](C)O[C@@H](C)C3)c2)cs1`, the IC50 is over 0.01 µM in assay [1] (setting [3]) and under 0.01 µM in assay [2] (setting [4]).

As for `CN1C(=O)CCc2ccc(-c3csc(NC(=O)CNC(=O)c4ccn(S(C)(=O)=O)c4)n3)cc21`, the IC50 in assay [1] (setting [3]) and in assay [2] (setting [4]) was over 0.01 µM each time.
